Experimental data reported in patent publication US9241991B2, “Agents, compositions, and methods for treating pruritus and related skin conditions” (The Brigham and Women's Hospital, Inc., priority 2010, dated 2016).

Chains of the proteins cited; added tags and fusions are not shown. Lines headed by an entry give the natural chain unless they say otherwise; changes in a name come on top.
UniProt P21729: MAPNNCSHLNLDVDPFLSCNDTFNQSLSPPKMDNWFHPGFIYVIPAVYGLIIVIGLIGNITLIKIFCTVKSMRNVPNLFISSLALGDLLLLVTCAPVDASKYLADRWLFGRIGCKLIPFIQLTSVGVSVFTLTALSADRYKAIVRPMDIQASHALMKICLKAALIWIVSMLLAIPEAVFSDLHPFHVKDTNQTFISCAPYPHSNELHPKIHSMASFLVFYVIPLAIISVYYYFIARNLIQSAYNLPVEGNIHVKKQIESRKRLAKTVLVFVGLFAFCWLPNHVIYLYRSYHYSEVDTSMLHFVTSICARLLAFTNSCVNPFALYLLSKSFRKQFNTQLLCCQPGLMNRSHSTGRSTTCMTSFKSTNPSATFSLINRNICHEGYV
UniProt P07492: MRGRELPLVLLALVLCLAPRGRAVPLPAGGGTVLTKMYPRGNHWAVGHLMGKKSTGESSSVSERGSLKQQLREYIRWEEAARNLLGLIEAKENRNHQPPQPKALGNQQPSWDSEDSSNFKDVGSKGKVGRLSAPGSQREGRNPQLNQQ

Molecular target: T1, GRPR (Mus musculus, UniProt P21729)
T1 construct: from tissue; host or cells: spinal cord of live mice (intrathecal injection)
Assay: Scratching after intrathecal GRP18-27 in Tlr3-/- and WT mice
Format: in vivo
Details: exogenous
Experimental: We injected pruritic agents intradermally in the nape of the neck (50 μl) or cheek (10 μl), respectively. We purchased histamine, compound 48/80, trypsin, chloroquine, serotonin, TLR3 agonist polyribo-inosinic/cytidylic acid (PIC), and complete Freund's adjuvant (CFA) from Sigma-Aldrich, histamine H1 receptor agonist histamine-trifluoromethyl-toluidine (HTMT), capsaicin, and the H4R-selective agonist 4-methylhistamine (4-MeHA) from Tocris, and endothelin-1 (ET-1) from ALEXIS Biochemicals. We also purchased the PAR2 agonist H-Ser-Leu-Ile-Gly-Arg-Leu-NH2 (SLIGRL-NH2) and gastrin-releasing peptide fragment (GRP18-27) from Bachem, and TRIF peptide inhibitor and control peptide from Invivogen. Antisense oligodeoxynucleotides (AS-ODN; 5′-AACAATTGCTTCAAGTCC-3′; SEQ ID NO:1) targeting TLR3 and mismatch ODN (MM-ODN; 5′-ACTACTACACTAGACTAC-3′; SEQ ID NO:2) were synthesized by Invitrogen according to the published sequences (2). AS-ODN (10 μg) or MM-ODN were intrathecally injected once a day for 5 days. To target DRG and spinal cord cells, TRIF inhibitor (10 μl) were delivered intrathecally into cerebral spinal fluid via a lumbar puncture. A successful spinal puncture was evidenced by a brisk tail-flick after the needle entry into subarachnoid space (3). Most reagents were dissolved in sterile saline. Capsaicin was dissolved in 10% DMSO.

Substance: GRP18-27: gastrin-releasing peptide fragment from Bachem (SSSVSERGSL; Neuromedin-C; UniProt P07492 58-67, looked up, fragment)
- itch deficits in Tlr3-/- mice: able to rescue
- scratching in Tlr3-/- and WT mice: elicited comparable scratching
